# Where two headings read alike, the source gives them in different places.
# Description: Frozen pig's heads were obtained from local abattoir. Then, they were defrosted at room temperature. The porcine mucosa were excised by dissecting the sublingual mucosa and removing the underlying connective tissue using a scalpel and fine tweezers using established surgical techniques. The excised mucosa were frozen on aluminum foil at −20° C. until used (<4 weeks).
# The sublingual mucosa (floor of the mouth) excised from pigs were used as the diffusion membranes. Mcvilian buffer at various pH was used in the donor cell as a diffusion medium.
# Before each experiment, the mucosal membranes were defrosted at room temperature and mounted between the donor and receptor chambers and clamped using a metal clamp. The receptor chamber that has a magnetic stirrer was filled with the diffusion medium before mounting the membranes and air bubbles were removed after mounting the membranes and before the experiment. The water bath was set at 37° C. for the circulating water in the jacketed Franz Cells. The mounted membranes were equilibrated with the diffusion medium for 30 min from both sides before the experiment and were checked for any leaks.
# Aliquots were withdrawn from the receptor chamber using 6 inch-long needles (Popper & Sons. Inc, New Hyde Park, NYC) and 1 mL syringes at 5, 10, 15, 20, 30, 45, 60, 75, and 90 min. The withdrawn volumes were replaced with fresh medium.
# Samples were transferred to HPLC vials for HPLC analysis according to USP Method.
smiles,measurement,setting,value
"CNC[C@H](O)c1ccc(O)c(O)c1 [Epi, Epinephrine]",cumulative permeated epinephrine (20 mg) per area,"pH 5, 5 min",33.8 ± 1.8 μg/cm^2
same,cumulative permeated epinephrine (20 mg) per area,"pH 5, 10 min",37.5 ± 0.6 μg/cm^2
same,cumulative permeated epinephrine (20 mg) per area,"pH 6, 20 min",15.7 ± 3.3 μg/cm^2
same,percentage of diffused epinephrine (%),"pH 8, 30 min",15.2 ± 0.23%
